# Yeast mating assay 1: variants of the scFv Ab-14

The measurements come from Engelhart et al. 2022 (doi:10.1038/s41597-022-01779-4) through the FLAb antibody collection.

The target is the same throughout: PDVDLGDISGINAS, from the HR2 region of SARS-CoV-2 spike.

The variants keep the heavy chain, the linker and the frameworks of Ab-14 (scFv order VH, three GGGGS repeats, VL).
VH: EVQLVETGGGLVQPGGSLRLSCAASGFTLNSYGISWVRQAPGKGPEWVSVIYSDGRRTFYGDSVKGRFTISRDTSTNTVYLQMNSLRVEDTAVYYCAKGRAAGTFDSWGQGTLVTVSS
VL: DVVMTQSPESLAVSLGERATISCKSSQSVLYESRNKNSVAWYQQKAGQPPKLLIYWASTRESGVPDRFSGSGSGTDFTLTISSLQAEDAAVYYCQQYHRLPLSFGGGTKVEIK

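Phage display of a naive human antibody library on the peptide gave the parent. In library AAYL50, one, two or three CDR residues were substituted; doubles and triples were drawn at random. Affinity was read by AlphaSeq, a pooled yeast mating assay with surface-displayed partners. After mating in shaken culture at 30 °C for 16 h, diploids were selected and their barcode pairs sequenced. Scores were corrected for input abundance and mapped to Kd with protein pairs of known affinity run in the same pool. There are three technical replicates.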

Each variant is given by its three light chain CDRs, as the data file delimits them; those of the parent are KSSQSVLYESRNKNSVA, WASTRES, QQYHRLPLS.
Numbers give log10(Kd / nM), so 0 is 1 nM and 3 is 1 µM. Smaller is tighter.
A mean of the replicates is given; it leaves out those without a signal.
A pair that was not seen in any replicate is written "nd"; this usually means weak binding, but a binder can also be missed.
Nonspecific signal, from three strains lacking the peptide, appeared in 18% of pairings of library AAYL50, centred on 4.19 (5% of these signals below 2.99); values are not corrected for it. The control count says in how many pairings with the empty strains this scFv gave a signal.
For reference, the parent read 0.65 as the reference entry and 1.68 as a member of this library.

With KSSQPVLYESRNKNSVA / WASTREY / QQYHRLPSS the result was 1.88 (3 of 3 replicates; controls 3 of 9).
With KSSQSVLYESGNKNSVQ / WASTRES / QQYHPLPLS the result was nd (0 of 3 replicates; controls 0 of 9).
With KSSQSNLYESRNKNSVA / WASTRES / QPYHRLPLQ the result was 0.89 (3 of 3 replicates; controls 2 of 9).
With KSSQCVLYESRNKNSVA / WASTRES / QWYHRLPLS the result was nd (0 of 3 replicates; controls 0 of 9).
With KSSQSVLYESRNKWSVA / WLSTRKS / QQYHRLPLS the result was nd (0 of 3 replicates; controls 1 of 9).
With KSSQSVLYESRNKNSVA / VASTREP / QYYHRLPLS the result was nd (0 of 3 replicates; controls 0 of 9).
With KSSQSELYESRNKNSAA / WADTRES / QQYHRLPLS the result was 3.87 (2 of 3 replicates; controls 4 of 9).
With KSSQSVLYESRNCTSVA / WASTRES / QQYHRLVLS the result was nd (0 of 3 replicates; controls 0 of 9).
With KSSQSVKYESRNKNKVA / WAVTRES / QQYHRLPLS the result was 3.72 (1 of 3 replicates; controls 3 of 9).
With RSSYSWLYESRNKNSVA / WASTRES / QQYHRLPLS the result was 0.82 (3 of 3 replicates; controls 1 of 9).
With KSSQSVLYEPRNKNSVA / WASTRES / QQYHRLPFC the result was 3.31 (1 of 3 replicates; controls 1 of 9).
With KRRQSVLYESRNKNSVA / WASTRES / QVYHRLPLS the result was nd (0 of 3 replicates; controls 1 of 9).
With KSSQSVLYESRNKTSVA / WATTRES / QQTHRLPLS the result was 4.20 (1 of 3 replicates; controls 0 of 9).
With KSSQSVLHESRNKQSVA / WASTRPS / QQYHRLPLS the result was 2.51 (3 of 3 replicates; controls 0 of 9).
With KSSQSVLYESRNYNSVA / WPSTRES / QQYHMLPLS the result was nd (0 of 3 replicates; controls 0 of 9).
With KSSQCVLYESRNKNSVA / WGSTRPS / QQYHRLPLS the result was 2.89 (1 of 3 replicates; controls 0 of 9).
With KSSQSRLYESRIKNSVA / WASTRQS / QQYHRLPLS the result was 3.06 (1 of 3 replicates; controls 0 of 9).
With KWSQSVLYESGNKNSVA / WASTRES / QKYHRLPLS the result was nd (0 of 3 replicates; controls 0 of 9).
With KGSESVLYESRNKNKVA / WASTRES / QQYHRLPLS the result was 2.27 (3 of 3 replicates; controls 0 of 9).
With KSSQSVLYESRNKNSVA / WASTRED / QQYFRLPLH the result was 0.79 (3 of 3 replicates; controls 1 of 9).
With FSSQSVLYESANKNSVA / WASTRES / QTYHRLPLS the result was 2.04 (3 of 3 replicates; controls 4 of 9).
With KCSQSVLYESRNKVSMA / WASTRES / QQYHRLPLS the result was nd (0 of 3 replicates; controls 0 of 9).
With KSSQNSLYESRNKNSVA / WASTRES / QQYHREPLS the result was nd (0 of 3 replicates; controls 0 of 9).
With KSSQSVLYESRNKNSVY / LASTPES / QQYHRLPLS the result was 3.86 (2 of 3 replicates; controls 1 of 9).
With KSNQSVLYESRNKNSVA / WASERES / QQAHRLPLS the result was nd (0 of 3 replicates; controls 0 of 9).
With KSSQWVLYESRNKNSVW / WASTRES / CQYHRLPLS the result was nd (0 of 3 replicates; controls 0 of 9).
With KHSQSVLDESRNKNSVA / SASTRES / QQYHRLPLS the result was -0.45 (3 of 3 replicates; controls 2 of 9).
With KSSQSVLIESRNKYSVA / WASTRES / QQYHRLPLV the result was 1.48 (3 of 3 replicates; controls 1 of 9).
With KLSQSVLYESRNKNSVA / FASTRES / QQYLRLPLS the result was 1.41 (3 of 3 replicates; controls 2 of 9).
With KSSQDVLYMSRNKISVA / WASTRES / QQYHRLPLS the result was 2.84 (2 of 3 replicates; controls 2 of 9).
With PSSQSVRYESRNKNSVA / WASWRES / QQYHRLPLS the result was nd (0 of 3 replicates; controls 0 of 9).
With KSSQSVLYESRNVNSVP / WASTRES / QPYHRLPLS the result was 4.71 (1 of 3 replicates; controls 5 of 9).
With KSSQSVLYESRNKNSVA / WASTREL / QQYHRLPNS the result was nd (0 of 3 replicates; controls 1 of 9).
With KPVQSVLYESPNKNSVA / WASTRES / QQYHRLPLS the result was 1.92 (3 of 3 replicates; controls 4 of 9).
With KSSQYVLYEYRNKNSVA / WCSTRES / QQYHRLPLS the result was 3.34 (1 of 3 replicates; controls 1 of 9).
With KSAQSVLYESMNKNSVA / WASTRES / QQYHRLQLS the result was 0.73 (3 of 3 replicates; controls 1 of 9).
With YSSQSVLYEMRNKNSVA / WASTRVS / QQYHRLPLS the result was 3.18 (1 of 3 replicates; controls 2 of 9).
With KSSQSYLYESENKNSVA / WASTRES / QQYHRLPFS the result was 1.52 (3 of 3 replicates; controls 8 of 9).
With KSSQSVMYESRNNNVVA / WASTRES / QQYHRLPLS the result was nd (0 of 3 replicates; controls 0 of 9).
With KSSQSVLYESRNKNSVA / WASTIES / QQQHFLPLS the result was 4.36 (2 of 3 replicates; controls 4 of 9).
With KSSQSVLYESRNKNSVA / MASTRES / QQEHFLPLS the result was nd (0 of 3 replicates; controls 0 of 9).
With KSSQSVLYESDNKNSVA / WASVRES / GQYHRLPLS the result was 1.37 (3 of 3 replicates; controls 5 of 9).
With KSSQSWLYESRFKNSVA / WASTRES / QQYHRLPLS the result was 1.58 (3 of 3 replicates; controls 1 of 9).
With KSSWSVLYESRNKNSSA / VASTRES / QQYHRLPLS the result was 5.54 (2 of 3 replicates; controls 7 of 9).
With VSQQSVLYESRNKNSVA / WASTRES / QQYHRLPLA the result was 1.19 (3 of 3 replicates; controls 0 of 9).
With KSSQSVLYELRNKNASA / WASTRES / QQYHRLPLS the result was nd (0 of 3 replicates; controls 1 of 9).
With KSSQSVLHESRNKNSVA / WASTGES / QVYHRLPLS the result was nd (0 of 3 replicates; controls 0 of 9).
With KSSISVLYESRNKNDVA / WAHTRES / QQYHRLPLS the result was 4.80 (3 of 3 replicates; controls 5 of 9).

Extract of 8 entries:

Variant KGSESVLYESRNKNKVA / WASTRES / QQYHRLPLS showed 2.27 (3 of 3 replicates; controls 0 of 9).
Variant KSSQSVLYESRNYNSVA / WPSTRES / QQYHMLPLS showed nd (0 of 3 replicates; controls 0 of 9).
Variant KSSQSVLYEPRNKNSVA / WASTRES / QQYHRLPFC showed 3.31 (1 of 3 replicates; controls 1 of 9).
Variant KSSQYVLYEYRNKNSVA / WCSTRES / QQYHRLPLS showed 3.34 (1 of 3 replicates; controls 1 of 9).
Variant KSSQSWLYESRFKNSVA / WASTRES / QQYHRLPLS showed 1.58 (3 of 3 replicates; controls 1 of 9).
Variant KSSQSVLHESRNKQSVA / WASTRPS / QQYHRLPLS showed 2.51 (3 of 3 replicates; controls 0 of 9).
Variant KSSWSVLYESRNKNSSA / VASTRES / QQYHRLPLS showed 5.54 (2 of 3 replicates; controls 7 of 9).
Variant FSSQSVLYESANKNSVA / WASTRES / QTYHRLPLS showed 2.04 (3 of 3 replicates; controls 4 of 9).